Values quoted from earlier work in patent US10226472B2, “Methods for the treatment of breast cancer” (SYNDAX PHARMACEUTICALS, INC., priority 2011, dated 2019).
Where two headings read alike, the source gives them in different places.

Test system: HER2-positive breast cancer cell lines (BT474 and SKBR3)
Conditions: following trastuzumab exposure, cited from earlier work

trastuzumab: monoclonal antibody that blocks the effects of the growth factor protein HER2
G0/G1 arrest (resistant cells): 68%
cells in S-phase (resistant cells): 14%
G0/G1 arrest (sensitive cells): 84%
